# Experimental data taken from PubChem BioAssay AID686978 (National Center for Advancing Translational Sciences (NCATS), 2013).
# The entries are a selection whose mix differs from that of the whole data set. Results filed as inconclusive are left out. A call without a number means that no potency is given here. Active and inactive are the calls of the source. Calls follow the shape of the dose curve; as a rule, active = well fitted inhibition curve with a large enough effect; inconclusive = small, poorly fitted or top-dose-only effect; inactive = flat fitted curve, though single readings scatter.
# Assay: qHTS for Inhibitors of human tyrosyl-DNA phosphodiesterase 1 (TDP1): qHTS in cells in absence of CPT; also: nearly all actives have a fitted effect of over 55% in size
# Conditions: DT40 Tdp1-/- hTDP1 cells, no CPT, ATP luminescence, 48 h; series mostly up to 46.2 µM
# Potency is read from the fitted curve at half-maximal effect.
row,Compound,Potency
1,CP(=S)(Nn1cnnc1)Oc1ccccc1 (stereo not given),inactive
2,CP(=O)(Nc1ccccc1Br)Oc1ccccc1 (stereo not given),inactive
3,COc1ccccc1OP(C)(=O)Nc1ccccc1 (stereo not given),inactive
4,O=[N+]([O-])c1cc([N+](=O)[O-])c(O)c([N+](=O)[O-])c1.c1ccc(Oc2ccncc2)cc1,inactive
5,CN(C)CCS,inactive
6,CCOP(C)(=S)SCC(=O)NC(C)C(=O)O (stereo not given),inactive
7,CP(=O)(Nc1ccccn1)Oc1ccc(Cl)cc1 (stereo not given),inactive
8,CP(=O)(Nc1ccc(SC(F)(F)F)cc1)Oc1ccc(Cl)cc1 (stereo not given),active: 4.11 µM
9,CP(=O)(Oc1ccccc1)OC(c1ccccc1)C(F)(F)F (stereo not given),inactive
10,CP(=O)(NC(=O)Nc1ccccc1)Oc1ccccc1 (stereo not given),inactive
11,CCc1ccc(OP(C)(=O)N2CCN(c3ccc([N+](=O)[O-])cc3)CC2)cc1 (stereo not given),active: 14.6 µM
12,O=[N+]([O-])[O-].[NH4+],inactive
13,COc1ccccc1-c1ccccn1.O=[N+]([O-])c1cc([N+](=O)[O-])c(O)c([N+](=O)[O-])c1,inactive
14,CCN(CC)CCCOC(=O)C(O)(c1ccccc1)c1ccccc1,inactive
15,Cc1cc(C)cc(OP(C)(N)=O)c1 (stereo not given),inactive
16,COc1ccccc1OP(C)(=O)Nc1cc(Cl)ccc1C (stereo not given),inactive
17,COc1ccc(OP(C)(=O)Nc2cccc(F)c2)cc1 (stereo not given),inactive
18,O=[N+]([O-])c1cc([N+](=O)[O-])c(Nc2cccnc2)c([N+](=O)[O-])c1,active: 11.6 µM
19,O=[N+]([O-])c1ccc2c(c1)C=Nc1ccccc1O2,active: 4.11 µM
20,Cc1cccc(C)c1OP(C)(N)=O (stereo not given),inactive
21,O=[N+]([O-])OCC(CO[N+](=O)[O-])(CO[N+](=O)[O-])CO[N+](=O)[O-],inactive
22,O=[N+]([O-])c1cccc([N+](=O)[O-])c1,inactive
23,Cc1ccc(C)c(NP(C)(=O)Oc2ccccc2)c1 (stereo not given),inactive
24,Cc1cc(C)cc(OP(C)(=O)Nc2ccccn2)c1 (stereo not given),inactive

row,Compound,Potency
1,COc1ccccc1OP(C)(=O)Nc1cccc(Br)c1 (stereo not given),inactive
2,Cc1cc(C)cc(OP(C)(=O)Nc2ccc(C)cc2C)c1 (stereo not given),inactive
3,O=[N+]([O-])c1cc([N+](=O)[O-])c(-c2cnn(-c3ccccc3)c2)c([N+](=O)[O-])c1,active: 6.51 µM
4,Cc1nc2ccc3ccccc3c2s1.O=[N+]([O-])c1cc([N+](=O)[O-])c(O)c([N+](=O)[O-])c1,inactive
5,O=[N+]([O-])c1cc([N+](=O)[O-])c(-n2nnc3ccccc32)c([N+](=O)[O-])c1,inactive
6,CC(C)N(CCCl)C(C)C,inactive
7,COc1ccccc1OP(C)(=O)Nc1c(C)cccc1C (stereo not given),inactive
8,COc1ccc(-c2ccccn2)cc1.O=[N+]([O-])c1cc([N+](=O)[O-])c(O)c([N+](=O)[O-])c1,inactive
9,CCCOc1ccc(NP(C)(=O)Oc2ccc(Cl)cc2)cc1 (stereo not given),inactive
10,CP(=O)(Nc1ccc(SC(F)(F)F)cc1)Oc1ccccc1 (stereo not given),active: 20.6 µM
11,CC1CCOC(=O)C=CC=CC(=O)OC2CC3OC4C5OC5(C)CCC4(COC(=O)C1O)C2(C)C31CO1 (stereo not given),active: 0.13 µM
12,O=[N+]([O-])c1ccc(OP2(=O)COCCO2)cc1 (stereo not given),inactive
13,Cc1c(C(c2ccc3c(c2)OCO3)c2c(C)n(C)n(-c3ccccc3)c2=O)c(=O)n(-c2ccccc2)n1C.O=[N+]([O-])c1cc([N+](=O)[O-])c(O)c([N+](=O)[O-])c1,inactive
14,COc1ccc(OP(C)(=O)Nc2cccc(Br)c2)cc1 (stereo not given),inactive
15,CN(C)CCOC(=O)C(O)(c1ccccc1)C1CCCCC1 (stereo not given),inactive
16,Cc1ccccc1NP(C)(=O)Nc1ccccc1C,inactive
17,CCN(CCCl)Cc1ccccc1C,inactive
18,O=[N+]([O-])c1cc([N+](=O)[O-])c(C(F)(F)F)c([N+](=O)[O-])c1O,inactive
19,CCOP(C)(=S)SCC(=O)NC(C)(CC)C(=O)O (stereo not given),inactive
20,CCOP(=O)(CC)Oc1ccc([N+](=O)[O-])cc1 (stereo not given),inactive
21,CP(=O)(Nc1ccccc1F)Oc1ccccc1 (stereo not given),inactive
22,Cc1c([N+](=O)[O-])cc([N+](=O)[O-])c(Br)c1[N+](=O)[O-],active: 7.31 µM
23,CCN(CC)CCCOC(=O)C(O)(c1ccccc1)C1CCCCC1 (stereo not given),inactive
24,CP(=O)(Nc1ccccc1)Oc1ccc(F)cc1 (stereo not given),inactive

row,Compound,Potency
1,CCCCCOc1ccc(NP(C)(=O)Oc2ccc(Cl)cc2Cl)cc1 (stereo not given),inactive
2,Cc1cccc([N+](=O)[O-])c1[N+](=O)[O-],inactive
3,CCCCCCCCCCCCCCCC1C[N+](C)(C)CCOP(C)(=O)O1 (stereo not given),active: 13 µM
4,CP(=O)(OCCOc1ccccc1)OCCOc1ccccc1,inactive
5,Cc1cc(C)cc(OP(C)(=O)Nc2cccc(C(F)(F)F)c2)c1 (stereo not given),inactive
6,COc1ccccc1OP(C)(=O)Nc1ccc(C)c(C)c1 (stereo not given),inactive
7,COc1ccc(OP(C)(=O)Nc2ccccc2Br)cc1 (stereo not given),inactive
8,Cc1c(NP(C)(=O)Oc2ccc(C(C)C)cc2)c(=O)n(-c2ccccc2)n1C (stereo not given),inactive
9,O=[N+]([O-])c1cc([N+](=O)[O-])c(Nc2ccccn2)c([N+](=O)[O-])c1,active: 2.91 µM
10,CP(=O)(Nc1ccccn1)Oc1ccccc1 (stereo not given),inactive
11,COc1ccccc1OP(C)(=O)Nc1ccc(C)cc1C (stereo not given),inactive
12,CCc1ccc(OP(C)(=O)O)cc1,inactive
13,COc1ccccc1OP(C)(=O)Nc1ccc(Br)cc1 (stereo not given),inactive
14,COc1ccc(OP(C)(=O)Nc2ccccn2)cc1 (stereo not given),inactive
15,CN(C)CCOC(=O)C(O)(c1ccccc1)C1CCCC1 (stereo not given),inactive
16,COc1ccccc1OP(C)(=O)Nc1ccccc1Br (stereo not given),inactive
17,CC(C)(C)c1ccc(OP(C)(=O)O)cc1,inactive
18,CP(=O)(Nc1ccc(Cl)cc1)Oc1ccc(F)cc1 (stereo not given),inactive
19,CN(C)C(=O)c1c([N+](=O)[O-])cc([N+](=O)[O-])cc1[N+](=O)[O-],active: 2.91 µM
20,COc1ccccc1OP(C)(=O)Nc1c(C)n(C)n(-c2ccccc2)c1=O (stereo not given),inactive
21,OCCSCCO,inactive
22,CC(C)OP(=O)(F)OC(C)C,inactive
